## scFv variants of Ab-14 (heavy chain) against a SARS-CoV-2 spike peptide

Binding partner: SARS-CoV-2 spike HR2 peptide, sequence PDVDLGDISGINAS.

Parent scFv Ab-14: VH joined to VL by the linker GGGGSGGGGSGGGGS. Changes lie in the heavy chain CDRs alone.
VH: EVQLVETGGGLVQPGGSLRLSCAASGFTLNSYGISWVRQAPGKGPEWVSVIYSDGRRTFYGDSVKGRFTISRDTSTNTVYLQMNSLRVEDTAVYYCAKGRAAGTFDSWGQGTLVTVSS
VL: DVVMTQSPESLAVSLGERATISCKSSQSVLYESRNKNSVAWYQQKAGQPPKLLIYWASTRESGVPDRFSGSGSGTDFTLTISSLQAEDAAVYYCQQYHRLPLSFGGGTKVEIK

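Phage display of a naive human antibody library on the peptide gave the parent. In library AAYL49, one, two or three CDR residues were substituted; doubles and triples were drawn at random. In AlphaSeq, yeast of one mating type display the scFv and yeast of the other type display the target. Mating (16 h, 30 °C) was followed by selection of diploids and sequencing of their barcodes. A regression on co-assayed BCL2-family reference pairs converts the normalised counts of each replicate to an apparent Kd. There are three technical replicates.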

Positions count from residue 1 of the parent VH; S53M puts M in place of S.
Numbers give log10(Kd / nM), so 0 is 1 nM and 3 is 1 µM. Smaller is tighter.
Averages over replicates are reported, and they cover detected replicates only.
A pair that was not seen in that replicate is written "ND"; this usually means weak binding, but a binder can also be missed.
Nonspecific signal, from three strains lacking the peptide, appeared in 15% of pairings of library AAYL49, centred on 4.06 (5% of these signals below 2.83); values are not corrected for it. For each scFv, signals with the empty controls are counted beside the result, with their mean in brackets.

changes | replicates, log10 nM | mean, log10 nM | signal with controls
S53M+K65E+R100T | ND / ND / ND | ND | 0/9
N30T+S31D+S35G | ND / 2.17 / ND | 2.17 | 0/9
F27E+G61W+K65A | 4.02 / ND / 5.71 | 4.86 | 5/9 (4.39)
L29Y+S31T+G99Y | ND / ND / ND | ND | 0/9
L29N+I51G+T104A | ND / 3.94 / ND | 3.94 | 1/9 (3.28)
L29A+R100H+F105L | 2.57 / ND / 3.24 | 2.91 | 2/9 (3.67)
L29Q+G103W | ND / ND / ND | ND | 0/9
S53D+Y60F+A101S | 4.63 / ND / 3.88 | 4.26 | 3/9 (4.38)
G26E+Y32P+G55T | ND / ND / ND | ND | 0/9
Y60E+D62C | ND / 4.99 / ND | 4.99 | 2/9 (3.69)
S53A+K65F+D106T | 0.84 / 0.77 / 0.62 | 0.75 | 2/9 (3.49)
L29W+D54Y+K65F | ND / ND / ND | ND | 0/9
G33V+D62W+T104S | 5.09 / 4.02 / ND | 4.55 | 3/9 (4.79)
F27V+A101V+A102G | 0.82 / 1.14 / 0.92 | 0.96 | 2/9 (4.12)
N30S+D54F+Y60S | ND / ND / ND | ND | 0/9
Y52H+F59V+R100V | ND / 3.81 / ND | 3.81 | 7/9 (4.64)
T28M+A101M+T104W | ND / ND / ND | ND | 1/9 (4.46)
G55Q+R56M+V64N | 3.26 / ND / ND | 3.26 | 1/9 (2.77)
V50P+G61W+K65T | ND / 4.17 / ND | 4.17 | 1/9 (4.56)
V50L | 4.81 / 3.95 / ND | 4.38 | 1/9 (3.56)
T28R+N30K+A101W | ND / ND / ND | ND | 0/9
Y32D+A102N+S107H | ND / ND / ND | ND | 0/9
G55F+G103R | ND / ND / ND | ND | 2/9 (4.05)
T58D+K65N+D106K | ND / 3.87 / ND | 3.87 | 2/9 (2.91)
I51C+Y60S+K65G | ND / ND / ND | ND | 3/9 (3.72)
G26M+Y52G+K65C | ND / ND / ND | ND | 0/9
L29N+S53M+S63K | ND / 3.87 / ND | 3.87 | 2/9 (4.58)
N30A+S31W+A102R | ND / ND / ND | ND | 2/9 (3.56)
V50H+G99E+T104D | 4.68 / ND / ND | 4.68 | 6/9 (4.03)
S63D+G99D+A101D | 3.54 / ND / ND | 3.54 | 5/9 (3.81)
F27G+S31N+D54M | ND / ND / ND | ND | 1/9 (2.71)
V50Y+R56G+A101W | ND / ND / ND | ND | 0/9
N30S+Y60Q+K65F | 4.65 / ND / ND | 4.65 | 2/9 (4.19)
S53F+R56S+S63W | ND / ND / ND | ND | 0/9
D54K | 3.92 / 3.72 / 5.09 | 4.25 | 2/9 (3.57)
L29F+T58C+G99T | 3.23 / ND / ND | 3.23 | 1/9 (3.49)
T58V+D106A | ND / ND / 3.60 | 3.60 | 3/9 (4.49)
Y32E+G33L+T58H | ND / ND / ND | ND | 0/9
D54P+D62Y+G99W | ND / ND / ND | ND | 1/9 (3.53)
I51Q+D62S | ND / ND / ND | ND | 2/9 (3.30)
I51F+S53Q+F105G | ND / ND / ND | ND | 0/9
I51L+T58N+F59L | 3.34 / ND / ND | 3.34 | 0/9
L29V+V50K+I51A | ND / ND / ND | ND | 0/9
R56S+K65T | 3.72 / 1.99 / ND | 2.85 | 0/9
G55F+A101W+A102F | ND / ND / ND | ND | 0/9

Data: MIT Lincoln Laboratory AlphaSeq set, Engelhart et al. 2022, doi:10.1038/s41597-022-01779-4, as distributed in FLAb.